Measured values from US20140004176A1, “DELIVERY OF TREATMENTS TRANSDERMALLY FOR FUNGAL INFECTIONS AND OTHER INDICATIONS” (Strategic Science & Techologies, priority 2010, published 2014).

Settings: pH 7

Compound: CC(C)Cc1ccc(C(C)C(=O)[O-])cc1.[Na+] (stereo not shown) [Ibuprofen sodium salt]
- water solubility: water soluble
